pIC50: −log10 of the molar value.
Legend:
[1] = molecular target: PDE-6; experiment: Phosphodiesterase inhibition PDE-6; conditions: read-out: PDE-6
Description: Phosphodiesterase inhibition was determined by methods known to one of skill in the art.

[2] = Non-specific binding; type: in vitro ADME
[3] = PAMPA permeability; type: in vitro ADME
[4] = Protein binding by ultrafiltration
Description: Protein binding was determined by standard ultrafiltration methods.

[5] = test system: Caco-2; experiment: Caco-2 permeability
Excerpt: Several model systems are available, employing monolayers of various cell types, for evaluation of active transport of pharmaceutically active substances. For example, monolayers of Caco-2 intestinal epithelial cells can be used to evaluate active transport of substances between the intestine and the bloodstream. When plated on a surface which allows the flow of material from apical to basolateral and vice versa, such cells form a biological membrane which can be used to simulate physiological absorption and bio-availability. In another example, mouse brain capillary endothelial cell (MBEC) lines have been established to evaluate active transport in and out of the central nervous system. Another example of such cells is HT29 human colon carcinoma cells. Further, monolayers expressing particular transporter proteins can be established using transfected cells. For example, Sasaki et al (2002) J. Biol. Chem. 8:6497 used a double-transfected Madin-Darby canine kidney cell monolayer to study transport of organic anions.

pIC50 [1]: 8.22
Non-Spec Binding [2]: 0%
PAMPA Hex [3]: 1.45 10^−6
Protein Binding [4]: 95.8%
Caco-2 AtoB ([5]; AtoB): 11.4 10^−6
Caco-2 BtoA ([5]; BtoA): 63.3 10^−6
Compound: CCCc1nc(C)c2c(=O)[nH]c(-c3cc(S(=O)(=O)N(C)CC(=O)N(C)CCOC)ccc3OCC)nn12

From US20100093719A1, “PHARMACOKINETICALLY IMPROVED COMPOUNDS” (SURFACE LOGIX, INC., priority 2005, published 2010)
